Results: ChEMBL document CHEMBL1128546 (J Med Chem, 1995)

The chains behind the UniProt entries cited, without tags or fusion partners.
UniProt P08908, whole entry: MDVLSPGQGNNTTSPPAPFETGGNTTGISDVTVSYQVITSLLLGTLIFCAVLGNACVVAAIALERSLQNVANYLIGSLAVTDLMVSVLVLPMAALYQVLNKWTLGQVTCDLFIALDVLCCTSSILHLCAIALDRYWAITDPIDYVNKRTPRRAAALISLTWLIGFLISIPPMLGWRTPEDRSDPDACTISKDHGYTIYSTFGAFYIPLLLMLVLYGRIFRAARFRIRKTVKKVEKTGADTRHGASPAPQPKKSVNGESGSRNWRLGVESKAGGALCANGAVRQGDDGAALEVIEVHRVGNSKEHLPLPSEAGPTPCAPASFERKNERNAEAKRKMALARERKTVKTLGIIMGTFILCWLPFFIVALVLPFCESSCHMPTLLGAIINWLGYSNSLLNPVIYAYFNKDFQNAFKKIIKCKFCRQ

Target: 5-hydroxytryptamine receptor 1A (Homo sapiens, UniProt P08908)
Assay: Binding affinity for cloned human 5-hydroxytryptamine 1A receptor

| Compound | Ki [nM] |
| --- | --- |
| CS(=O)(=O)Nc1ccc(N2CCN(C(=O)CCCCCOc3ccc4[nH]cc(CCN)c4c3)CC2)cc1 | 10.2 |
| CS(=O)(=O)Nc1ccc(N2CCN(C(=O)COc3ccc4[nH]cc(CCN)c4c3)CC2)cc1 | 68.9 |
| CS(=O)(=O)NCc1ccccc1N1CCN(C(=O)COc2ccc3[nH]cc(CCN)c3c2)CC1 | 5.1 |
| NCCc1c[nH]c2ccc(OCC(=O)N3CCN(c4ccccc4[N+](=O)[O-])CC3)cc12 | 5.2 |
| NCCc1c[nH]c2ccc(OCCCCCC(=O)N3CCN(c4ccc(N)cc4)CC3)cc12 | 42.6 |
| NCCc1c[nH]c2ccc(OCC(=O)N3CCN(c4ccccc4CN)CC3)cc12 | 13.6 |
| NCCc1c[nH]c2ccc(OCC(=O)N3CCN(c4ccc(NC(=O)c5ccccc5)cc4)CC3)cc12 | 61 |
| NCCc1c[nH]c2ccc(OCC(=O)N3CCN(c4ccc(CN)cc4)CC3)cc12 | 130 |
| NCCc1c[nH]c2ccc(OCCCCC(=O)N3CCN(c4ccc([N+](=O)[O-])cc4)CC3)cc12 | 15.9 |
| CN(C)S(=O)(=O)Nc1ccc(N2CCN(C(=O)COc3ccc4[nH]cc(CCN)c4c3)CC2)cc1.Cl.O | 40.3 |
| NCCc1c[nH]c2ccc(OCCCC(=O)N3CCN(c4ccc([N+](=O)[O-])cc4)CC3)cc12 | 15.1 |
| NCCc1c[nH]c2ccc(OCCCCC(=O)N3CCN(c4ccc(N)cc4)CC3)cc12 | 50.7 |
| NCCc1c[nH]c2ccc(OCC(=O)N3CCN(c4ccc([N+](=O)[O-])cc4)CC3)cc12 | 24 |
| N#Cc1ccccc1N1CCN(C(=O)COc2ccc3[nH]cc(CCN)c3c2)CC1 | 15 |
| CS(=O)(=O)NCc1ccc(N2CCN(C(=O)COc3ccc4[nH]cc(CCN)c4c3)CC2)cc1 | 95 |
| NCCc1c[nH]c2ccc(OCC(=O)N3CCN(c4ccccc4)CC3)cc12 | 10.4 |
| NCCc1c[nH]c2ccc(OCCCCCC(=O)N3CCN(c4ccc([N+](=O)[O-])cc4)CC3)cc12 | 12.8 |
| NCCc1c[nH]c2ccc(OCC(=O)N3CCN(c4ccc(N)cc4)CC3)cc12 | 607 |
